Results published in article PMC6271006, “Monoamine Oxidase Inhibitory Constituents of Propolis: Kinetics and Mechanism of Inhibition of Recombinant Human MAO-A and MAO-B” (Molecules, 2014).

Chains of the proteins cited; added tags and fusions are not shown.
UniProt P27338, whole entry: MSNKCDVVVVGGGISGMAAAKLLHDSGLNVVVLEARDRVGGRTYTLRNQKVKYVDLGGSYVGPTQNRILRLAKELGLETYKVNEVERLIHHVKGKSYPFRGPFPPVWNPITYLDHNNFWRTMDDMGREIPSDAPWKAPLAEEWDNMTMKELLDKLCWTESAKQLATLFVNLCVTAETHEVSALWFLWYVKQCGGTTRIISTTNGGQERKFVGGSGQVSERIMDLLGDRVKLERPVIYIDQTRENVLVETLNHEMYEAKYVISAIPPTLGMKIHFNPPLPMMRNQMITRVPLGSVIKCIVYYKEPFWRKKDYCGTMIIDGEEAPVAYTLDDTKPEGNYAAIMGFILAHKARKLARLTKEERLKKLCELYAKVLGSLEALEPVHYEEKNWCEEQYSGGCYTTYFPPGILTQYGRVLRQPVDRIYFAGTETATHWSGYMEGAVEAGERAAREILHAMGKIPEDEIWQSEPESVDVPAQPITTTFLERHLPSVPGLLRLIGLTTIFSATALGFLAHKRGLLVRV

Columns and labels:
recombinant human MAO-B [1] = biological target: T1, recombinant human MAO-B (Homo sapiens, UniProt P27338); assay: Enzyme kinetics / inhibition mechanism, MAO-B (Ki, Lineweaver-Burk)
recombinant human MAO-B [2] = biological target: T1, recombinant human MAO-B; assay: MAO-B inhibition, kynuramine deamination assay (IC50); assay type: biochemical; design: purchased BD Biosciences (Bedford, MA, USA)
Protocol: To investigate the effect of the selected constituents on MAO-A and MAO-B, the kynuramine deamination assay was adapted for 96-well plates as described earlier. A fixed substrate concentration and varying inhibitor concentrations were used to determine the IC50 value at the point where 50% inhibition of the catalytic activity of the enzyme occurred. For MAO-A, the substrate concentration of 80 μM kynuramine was chosen because the apparent KM value for substrate binding reported previously was approximately 40 μM [48]. […]. Similarly, for MAO-B, substrate concentration of 50 μM kynuramine was chosen. The assay was performed with the addition of inhibitor. Inhibition was calculated as percent of product formation compared to the corresponding control (enzyme-substrate reaction) without the inhibitors. The reactions were carried out in 0.1 M potassium phosphate buffer at pH 7.4. […] The formation of 4-hydroxyquinoline was determined fluorometrically by SpectraMax M5 fluorescence plate reader (Molecular Devices, Sunnyvale, CA, USA) with an excitation and emission wavelength of 320 nm and 380 nm, respectively, using the Soft Max Pro program. Appropriate controls with the test compounds, fractions and extracts, where the enzyme or the substrate was added after stopping the reaction were setup simultaneously to check interference with the fluorescence measurements. […]

Compound: O=c1c(O)c(-c2ccccc2)oc2cc(O)cc(O)c12 [Galangin, galangin]
- Ki (recombinant human MAO-B [1]): 2000 ± 39 nM
- IC50 (recombinant human MAO-B [2]): 3650 ± 150 nM
